Laboratory results taken from the NIST ThermoML archive (doi:10.1016/j.jct.2016.10.010).

Assay: Molar enthalpy of transition or fusion
Details: Crystal; DSC

Molar enthalpy of transition or fusion: 15.3 ± 3.11 kcal/mol
Compound: O=C(O)c1cn(C2CC2)c2cc(N3CCNCC3)c(F)cc2c1=O [ciprofloxacin]

± gives the expanded uncertainty stated by the source.
